Antibody variant affinities, Ab-14 light chain, assay B

Source: Li et al. 2023 (doi:10.1038/s41467-023-39022-2), MIT Lincoln Laboratory and A-Alpha Bio; data file from the FLAb repository.

Antigen: PDVDLGDISGINAS, a 14-residue peptide of the SARS-CoV-2 spike HR2 region.

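Phage display of a naive human antibody library on the peptide gave the parent. This is the validation round: designs drawn from the data on random variants, tested in the same kind of assay. Several design methods are mixed in this list. In AlphaSeq, yeast of one mating type display the scFv and yeast of the other type display the target. After mating in shaken culture at 30 °C for 16 h, diploids were selected and their barcode pairs sequenced. Scores were corrected for input abundance and mapped to Kd with protein pairs of known affinity run in the same pool. Mating was done six times.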

Parent: Ab-14, a human scFv built as VH, three GGGGS repeats, VL. Only the CDRs of the light chain vary.
VH: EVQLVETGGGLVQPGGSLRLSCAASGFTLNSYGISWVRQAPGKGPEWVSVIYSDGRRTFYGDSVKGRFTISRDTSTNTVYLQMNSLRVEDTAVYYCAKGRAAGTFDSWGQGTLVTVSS
VL: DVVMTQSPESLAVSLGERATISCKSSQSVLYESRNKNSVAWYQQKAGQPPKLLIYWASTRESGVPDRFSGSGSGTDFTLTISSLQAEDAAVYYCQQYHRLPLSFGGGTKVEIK

Variants are written as CDR1, CDR2 and CDR3 of the light chain (limits as in the source). Parent: KSSQSVLYESRNKNSVA, WASTRES, QQYHRLPLS. This list holds designs with at most six substitutions. The Kd shown is the geometric mean over detected replicates; a lower Kd is a better binder. An entry "nd" has no value in the source: the pair was not observed among the diploids in any replicate. This suggests poor binding but is not conclusive. Background: pairings of all light chain designs with three empty control strains gave a value in 4% of cases (median 430 nM, 5th percentile 38 nM). Values in that range, when seen in few replicates, are hard to tell from nonspecific mating. In the paper, a design with two or fewer of six values counts as a poor binder. Values of this round are not directly comparable with the first-round values of the same sequences.

The variant KLSQSMLYESRNKNSVA / HASTRLS / QQYHRLPLS showed 2.5 nM (6 of 6 replicates).
The variant QISQSFLYESRNKNSVA / GASTRES / QQYHRLPLS showed 240 pM (6 of 6 replicates).
The variant KVSQSWLSESRNKNSVA / EASTRQS / QQYHRLPLS showed 550 pM (6 of 6 replicates).
The variant KLEQSITYESRNKNSVA / NASTRES / QQYHRLPLS showed 510 pM (6 of 6 replicates).
The variant KSSLSVLYESRNKNSVA / SASIRES / QQYVRLPLS showed 1.5 nM (6 of 6 replicates).
The variant KSSQSHPDESRNKNSVA / WASTRES / QQYHRLPLS showed 46 nM (5 of 6 replicates).
The variant VSSQSVLYESTNKNSVA / WGSTRES / QQYHRLPLS showed 36 nM (6 of 6 replicates).
The variant KLSQSWLYESRNKNNVA / GASQRES / QQYHRLPLS showed 690 pM (6 of 6 replicates).
The variant KSSQQVLYESRNKNSVA / WASTRES / QQYHRAPLS showed nd (0 of 6 replicates).
The variant KSGQSVLYESRNENSVA / HASTREL / QQYHRKPLS showed 80 nM (6 of 6 replicates).
The variant KLEQSTPYESRNKNSVA / NASTRES / QQYHRLPLS showed 3.3 nM (6 of 6 replicates).
The variant KLSQSWLYESRNKNSVA / NASTREV / QQYHRLPLS showed 880 pM (6 of 6 replicates).
The variant KSSISQLYESRNKNSVA / EASTREQ / QQYHRLPLS showed 1.1 nM (6 of 6 replicates).
The variant KLYQSVLYESRNKNSVA / NASLRES / QQYHRLPLS showed 1.8 nM (6 of 6 replicates).
The variant KLSQSMLYESRNKNNVA / EASQRES / QQYHRLPLS showed 1.8 nM (6 of 6 replicates).
The variant KSSQSVLGESRNKNSVA / QASTRES / QQYWRLPLS showed 970 pM (6 of 6 replicates).
The variant KSSQSVLYESRNKNSVA / EASTRCS / QQYHRLPLS showed 1.8 nM (6 of 6 replicates).
The variant KLSQSVLYESRNKNSVA / NASTRCS / QDYHRLPLS showed 1.0 nM (6 of 6 replicates).
The variant KISQSYLYESRNKNSVA / NASYRES / QQYHRLPLS showed 2.1 nM (6 of 6 replicates).
The variant KLDQSVLEKSRNKNSVA / WASTRES / QDYHRLPLS showed 4.2 nM (6 of 6 replicates).
The variant KSSQSVLGESRNHNSVA / QASTRES / QQYHRLPLS showed 8.4 nM (6 of 6 replicates).
The variant KQKQSVLYESRNKNSVA / ESSTRES / QQYHRIPLS showed 3.0 nM (6 of 6 replicates).
The variant KSSQSVLYSSRNKNSVA / WASTRES / QQYHRLELS showed nd (0 of 6 replicates).
The variant KISQGVLYESRNKNNVA / DASTRES / QQYHRLPLS showed 480 pM (6 of 6 replicates).
The variant KISQSVLYESRNKNSVA / WASQRES / QQYPRLPLS showed nd (0 of 6 replicates).
The variant KSYISGLYESRNKNSVA / EASTRES / QQYHRLPLS showed 2.1 nM (6 of 6 replicates).
The variant KPSQSVLYESRNKNSVA / WASTREQ / QQYHGLPLS showed 480 nM (1 of 6 replicates).
The variant KSSQSWVYESRNKNSVA / WASTRES / QQYHRLPLS showed 21 nM (5 of 6 replicates).
The variant KLSQSNLYESRNKNSVA / NASQREQ / QQYHRLPLS showed 980 pM (6 of 6 replicates).
The variant KSSISVLYESENKNSVA / EASTRES / QQYHRLPLS showed 1.0 nM (6 of 6 replicates).
The variant KSSQSHLYESRNKNSVA / GASTRES / QAYHRLTLS showed 48 nM (6 of 6 replicates).
The variant KLSQSWLYESRNKNSVA / NASTRMM / QQYHRLPLS showed 500 pM (6 of 6 replicates).
The variant KLSQSVLYESTNLNSVA / WASTRES / QQYHRLPLS showed 1.4 nM (6 of 6 replicates).
The variant KGSQSVLYESRYKNSVA / WASTRED / QQYHRLPLS showed 180 nM (1 of 6 replicates).
The variant KLSQSVMYESRNKNSVA / NASTRES / QQYHRLPLS showed 730 pM (6 of 6 replicates).
The variant KLSWSVLFESRNKNSVA / NASTRES / QQYHRLPLS showed 750 pM (6 of 6 replicates).
The variant KSSQSHLYESRNKNSVA / WASTRES / QQYHFLPLS showed 95 nM (6 of 6 replicates).
The variant HQSQSVLYESRNKNSVA / DASTRES / QQYHRLPLS showed 970 pM (6 of 6 replicates).
The variant KSSQSVLYESRNKNSVA / WASTRES / QAYHRLPLS showed 71 nM (1 of 6 replicates).
The variant KLSQSWWYESRNKNSVA / NASQRES / QQYHRLPLS showed 2.7 nM (6 of 6 replicates).
The variant KSAQSDLMESRNFNSVA / AASTRES / QQYHRLPLS showed 1.1 nM (6 of 6 replicates).
The variant KLPQSTLYESRNKNSVA / NASTREV / QQYHRLPLS showed 650 pM (6 of 6 replicates).
The variant KLSQSELYESRNKNSVA / NASTRLQ / QQYHRLPLS showed 900 pM (6 of 6 replicates).
The variant KWSQSHSYESRNKNSVA / WASTRES / QQYHRLPLW showed 71 nM (1 of 6 replicates).
The variant KSSQSVAYQSRNNNSVA / WASTRMS / QQYHRLPLS showed 58 nM (6 of 6 replicates).
The variant KSSQSVLYESRNANSVA / WASNRES / QQFWRLPLS showed nd (0 of 6 replicates).
The variant KVQQSVLYESRNKNSVA / DASTRLS / QQYHRLPLS showed 550 pM (6 of 6 replicates).

Excerpt, the first 8 entries:

{"CDR-L1": "KLSQSMLYESRNKNSVA", "CDR-L2": "HASTRLS", "CDR-L3": "QQYHRLPLS", "Kd": "2.5 nM", "replicates with signal": "6 of 6"}
{"CDR-L1": "QISQSFLYESRNKNSVA", "CDR-L2": "GASTRES", "CDR-L3": "QQYHRLPLS", "Kd": "240 pM", "replicates with signal": "6 of 6"}
{"CDR-L1": "KVSQSWLSESRNKNSVA", "CDR-L2": "EASTRQS", "CDR-L3": "QQYHRLPLS", "Kd": "550 pM", "replicates with signal": "6 of 6"}
{"CDR-L1": "KLEQSITYESRNKNSVA", "CDR-L2": "NASTRES", "CDR-L3": "QQYHRLPLS", "Kd": "510 pM", "replicates with signal": "6 of 6"}
{"CDR-L1": "KSSLSVLYESRNKNSVA", "CDR-L2": "SASIRES", "CDR-L3": "QQYVRLPLS", "Kd": "1.5 nM", "replicates with signal": "6 of 6"}
{"CDR-L1": "KSSQSHPDESRNKNSVA", "CDR-L2": "WASTRES", "CDR-L3": "QQYHRLPLS", "Kd": "46 nM", "replicates with signal": "5 of 6"}
{"CDR-L1": "VSSQSVLYESTNKNSVA", "CDR-L2": "WGSTRES", "CDR-L3": "QQYHRLPLS", "Kd": "36 nM", "replicates with signal": "6 of 6"}
{"CDR-L1": "KLSQSWLYESRNKNNVA", "CDR-L2": "GASQRES", "CDR-L3": "QQYHRLPLS", "Kd": "690 pM", "replicates with signal": "6 of 6"}